{"source": "patent US20050124533A1", "about": "“Glucocorticoid blocking agents for increasing blood-brain barrier permeability stan-261con” (priority 2002, published 2005)", "origin": "cited, not measured here", "conditions": "in vivo; cited from earlier work"}
{"substance": "gentamicin", "values": [{"measurement": "concentrations achieved in the CNS as share of those achieved in plasma", "result": "less than 10%"}]}
